Measured values taken from patent publication US9708557B2, “Process for the treatment of liquefied hydrocarbon gas using 2-amino-2(hydroxymethyl) propane-1,3-diol compounds” (Dow Global Technologies LLC, priority 2012, dated 2017).

Experiment: physchem

NC(CO)(CO)CO [TA, 2-amino-2-(hydroxymethyl)propane-1,3-diol]
pKa: 8.3
